Source: paper PMC9127186, “Molecular Basis Underlying Hepatobiliary and Renal Excretion of Phenolic Acids of Salvia miltiorrhiza Roots (Danshen)” (Frontiers in Pharmacology, 2022)

Legend:
[1] = biological target: T1, human OAT4 (Homo sapiens, UniProt Q9NSA0); assay: Cellular transport assay, HEK-293 cells expressing human OAT4
T1 sequence (Q9NSA0 1-550): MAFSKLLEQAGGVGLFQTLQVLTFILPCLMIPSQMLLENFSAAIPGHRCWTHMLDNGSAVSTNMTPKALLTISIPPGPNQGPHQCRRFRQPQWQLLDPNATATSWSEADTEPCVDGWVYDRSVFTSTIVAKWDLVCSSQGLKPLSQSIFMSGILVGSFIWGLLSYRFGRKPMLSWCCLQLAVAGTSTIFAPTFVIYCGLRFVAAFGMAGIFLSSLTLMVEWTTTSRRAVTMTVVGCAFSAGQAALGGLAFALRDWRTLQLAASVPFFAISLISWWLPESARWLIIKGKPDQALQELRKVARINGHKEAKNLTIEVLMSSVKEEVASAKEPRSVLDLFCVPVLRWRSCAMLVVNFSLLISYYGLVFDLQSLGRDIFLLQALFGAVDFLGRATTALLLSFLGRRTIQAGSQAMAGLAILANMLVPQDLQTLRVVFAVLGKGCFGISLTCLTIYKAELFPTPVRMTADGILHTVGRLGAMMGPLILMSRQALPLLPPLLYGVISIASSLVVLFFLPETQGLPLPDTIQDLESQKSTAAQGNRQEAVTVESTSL
Description: (§1) Briefly, HEK-293 cells were grown, at 37°C and 5% CO2, in Dulbecco’s modified Eagle’s medium, which was fortified with 10% fetal bovine serum, 1% minimal essential medium nonessential amino acids, and 1% antibiotic-antimycotic solution. A day before transfection, cells were seeded onto 24-well poly-D-lysine-coated plates at a density of 2 × 10^5 cells per well. After incubation at 37°C and 5% CO2 for 24 h, the expression plasmid and the empty vector were introduced separately into the HEK293 cells with Lipofectamine 2000 transfection reagent (Invitrogen, Carlsbad, CA, United States), according to the manufacturer’s protocol to yield transporter-expressing cells and mock cells, respectively.
(§2) Transport studies were performed 48 h after the transfection. […] Differential uptake between the transfected cells and mock cells was defined as net transport ratio (TransportTC/TransportMC ratio), where TransportTC and TransportMC are the transport rates of a test Danshen compound into transfected and mock cells, respectively. […] The determination was performed under linear uptake conditions by incubation for 5 min. Table 1 summarizes the final concentrations of the test Danshen compounds for different transporters. All the incubation samples were analyzed by liquid chromatography/mass spectrometry. […]

[2] = biological target: T2, human OAT3 (Homo sapiens, UniProt Q8TCC7); assay: Cellular transport assay, HEK-293 cells expressing human OAT3
T2 sequence (Q8TCC7 1-542): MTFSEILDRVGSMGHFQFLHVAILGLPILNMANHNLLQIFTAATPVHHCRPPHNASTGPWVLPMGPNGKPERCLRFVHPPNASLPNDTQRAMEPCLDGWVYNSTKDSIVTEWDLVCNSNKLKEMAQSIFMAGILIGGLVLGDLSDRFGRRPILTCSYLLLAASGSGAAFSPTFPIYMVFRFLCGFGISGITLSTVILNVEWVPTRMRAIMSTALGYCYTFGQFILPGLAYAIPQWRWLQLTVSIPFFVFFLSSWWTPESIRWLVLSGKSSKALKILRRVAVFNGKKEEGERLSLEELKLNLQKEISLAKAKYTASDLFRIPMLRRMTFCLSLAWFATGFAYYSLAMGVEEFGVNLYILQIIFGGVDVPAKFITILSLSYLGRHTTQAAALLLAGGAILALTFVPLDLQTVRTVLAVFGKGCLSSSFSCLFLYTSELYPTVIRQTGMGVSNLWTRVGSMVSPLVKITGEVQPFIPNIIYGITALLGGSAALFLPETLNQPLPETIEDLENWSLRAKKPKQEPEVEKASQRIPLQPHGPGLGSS
Description: as §1, §2

[3] = biological target: T3, human OAT1 (Homo sapiens, UniProt Q4U2R8); assay: Cellular transport assay, HEK-293 cells expressing human OAT1
T3 sequence (Q4U2R8 1-563): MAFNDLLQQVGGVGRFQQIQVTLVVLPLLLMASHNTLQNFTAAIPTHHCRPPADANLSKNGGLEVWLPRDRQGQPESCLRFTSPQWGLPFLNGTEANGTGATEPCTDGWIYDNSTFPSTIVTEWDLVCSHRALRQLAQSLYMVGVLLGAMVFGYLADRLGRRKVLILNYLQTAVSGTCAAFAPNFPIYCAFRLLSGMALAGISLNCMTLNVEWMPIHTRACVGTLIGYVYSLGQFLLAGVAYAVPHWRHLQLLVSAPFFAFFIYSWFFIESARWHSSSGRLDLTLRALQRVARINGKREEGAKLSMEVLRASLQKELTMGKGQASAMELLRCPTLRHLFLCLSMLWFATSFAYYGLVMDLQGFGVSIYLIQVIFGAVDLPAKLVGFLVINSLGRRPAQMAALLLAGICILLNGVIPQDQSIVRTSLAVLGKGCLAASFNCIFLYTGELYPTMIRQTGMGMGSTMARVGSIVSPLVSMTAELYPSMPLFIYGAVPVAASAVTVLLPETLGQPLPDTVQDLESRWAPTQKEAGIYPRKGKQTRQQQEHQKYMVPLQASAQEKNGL
Description: as §1, §2

[4] = biological target: T4, human OAT2 (Homo sapiens, UniProt Q9Y694); assay: Cellular transport assay, HEK-293 cells expressing human OAT2
T4 sequence (Q9Y694 1-546 isoform Q9Y694-2): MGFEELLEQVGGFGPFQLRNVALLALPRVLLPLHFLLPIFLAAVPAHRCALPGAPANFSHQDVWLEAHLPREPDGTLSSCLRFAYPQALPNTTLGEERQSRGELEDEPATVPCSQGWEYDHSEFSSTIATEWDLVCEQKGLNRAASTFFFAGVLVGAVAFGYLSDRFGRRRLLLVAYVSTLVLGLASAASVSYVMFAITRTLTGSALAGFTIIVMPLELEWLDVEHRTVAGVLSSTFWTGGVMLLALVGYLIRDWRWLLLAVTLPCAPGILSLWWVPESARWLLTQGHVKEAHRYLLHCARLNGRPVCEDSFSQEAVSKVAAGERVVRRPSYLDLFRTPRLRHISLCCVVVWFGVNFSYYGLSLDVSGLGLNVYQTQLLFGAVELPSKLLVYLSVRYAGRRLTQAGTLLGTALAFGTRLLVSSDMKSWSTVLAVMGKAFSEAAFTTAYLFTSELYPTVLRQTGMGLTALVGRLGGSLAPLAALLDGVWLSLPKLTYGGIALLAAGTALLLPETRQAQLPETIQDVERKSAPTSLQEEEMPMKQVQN
Description: as §1, §2

O=C(O)C(O)Cc1ccc(O)c(O)c1 (stereo not drawn) [Tanshinol, tanshinol]
substrate of human OAT4 [1]: relatively weak substrates
microsomal CLint ([1]; human, other cell line): 0.35 µL/min/mg
substrate of human OAT3 [2]: relatively weak substrates
substrate of human OAT1 [3]: substrates
substrate of human OAT2 [4]: substrates
microsomal CLint ([4]; human, other cell line): 6.09 µL/min/mg
